Biological target: Bifunctional dihydrofolate reductase-thymidylate synthase (Plasmodium falciparum K1, UniProt P13922)
Assay: Inhibition constant against wild-type PfDHFR (Plasmodium falciparum dihydrofolate reductase)
Method in brief: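 Recombinant wild-type or mutant PfDHFR, expressed in bacteria (induction at 20 °C for 20 h) and purified on methotrexate-Sepharose. Spectrophotometric assay in 50 mM TES pH 7.0, 75 mM β-mercaptoethanol, 1 mg/mL BSA, with 100 μM each H2-folate and NADPH. Started with enzyme (0.6–1 nM). Ki from IC50 = Ki(1+[S]/Km), assuming competitive binding.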

By UniProt entry, the sequences of proteins in these tests, tags left out. Where a name states a change or a piece, a line headed by the entry shows the natural chain unless it says otherwise.
UniProt P13922: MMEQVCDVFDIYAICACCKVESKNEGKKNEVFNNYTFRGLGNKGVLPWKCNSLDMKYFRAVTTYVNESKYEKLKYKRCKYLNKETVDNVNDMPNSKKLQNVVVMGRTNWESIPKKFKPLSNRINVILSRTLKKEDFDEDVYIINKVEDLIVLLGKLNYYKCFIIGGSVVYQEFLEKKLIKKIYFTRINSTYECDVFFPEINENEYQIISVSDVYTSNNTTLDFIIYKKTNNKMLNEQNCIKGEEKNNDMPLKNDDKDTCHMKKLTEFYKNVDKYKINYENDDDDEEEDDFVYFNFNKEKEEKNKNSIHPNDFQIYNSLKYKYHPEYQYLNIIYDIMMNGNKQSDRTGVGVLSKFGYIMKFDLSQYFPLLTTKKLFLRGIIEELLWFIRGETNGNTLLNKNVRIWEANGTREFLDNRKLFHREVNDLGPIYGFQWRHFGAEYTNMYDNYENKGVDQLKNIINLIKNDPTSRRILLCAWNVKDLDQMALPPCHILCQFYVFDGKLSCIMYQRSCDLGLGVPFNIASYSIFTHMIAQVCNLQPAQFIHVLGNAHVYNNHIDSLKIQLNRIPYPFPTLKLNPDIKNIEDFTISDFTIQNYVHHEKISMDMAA

Compound	Ki [µM]
N=C(S)N/N=C/c1ccc(Oc2ncc(C(F)(F)F)cc2Cl)cc1	5.2
COC(=O)c1sccc1-c1ccc(/C(C)=N/NC(N)=O)o1	9.7
